The entries are a selection whose mix differs from that of the whole data set. Records with an inconclusive call do not appear. The source made the active and inactive calls. Unless noted, calls follow the shape of the dose curve; as a rule, active = well fitted curve in the direction sought with a large enough effect in the repeat runs; inconclusive = weak or mixed curves; inactive = no such curve, though single readings can be large; an effect the other way counts as inactive or inconclusive.
Key:
[1] = qHTS assay to identify small molecule antagonists of the thyroid receptor (TR) signaling pathway - cell viability counter screen (AID 743064); conditions: GH3.TRE-Luc viability, CellTiter-Fluor, 24 h; also: potency is read from the fitted curve at half-maximal effect; nearly all actives have a fitted effect of over 50% in size
Outline: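 Rat GH3 pituitary tumor cells stably expressing two TR response elements driving luciferase were plated, rested 4 h, then dosed with library compounds and T3 (1 nM final). After 23.5 h at 37 °C, CellTiter-Fluor was added for 30 min and fluorescence recorded.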

Sequences of proteins named here, by UniProt entry; tags and fusion partners are left off.
UniProt Q92731, whole entry: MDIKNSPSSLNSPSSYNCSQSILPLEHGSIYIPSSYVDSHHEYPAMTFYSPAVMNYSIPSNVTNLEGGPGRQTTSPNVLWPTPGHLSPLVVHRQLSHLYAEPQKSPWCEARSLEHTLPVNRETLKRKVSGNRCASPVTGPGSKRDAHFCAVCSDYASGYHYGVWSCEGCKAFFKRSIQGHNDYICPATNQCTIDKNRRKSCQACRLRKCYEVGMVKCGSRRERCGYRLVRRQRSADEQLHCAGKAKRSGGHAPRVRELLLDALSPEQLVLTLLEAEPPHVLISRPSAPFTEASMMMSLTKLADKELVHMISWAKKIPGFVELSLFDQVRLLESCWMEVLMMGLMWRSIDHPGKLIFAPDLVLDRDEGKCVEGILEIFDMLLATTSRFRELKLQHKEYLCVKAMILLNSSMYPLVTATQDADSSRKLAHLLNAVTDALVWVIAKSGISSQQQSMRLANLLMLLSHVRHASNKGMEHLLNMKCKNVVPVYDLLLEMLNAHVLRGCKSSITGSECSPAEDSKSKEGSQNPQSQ
UniProt O75469, whole entry: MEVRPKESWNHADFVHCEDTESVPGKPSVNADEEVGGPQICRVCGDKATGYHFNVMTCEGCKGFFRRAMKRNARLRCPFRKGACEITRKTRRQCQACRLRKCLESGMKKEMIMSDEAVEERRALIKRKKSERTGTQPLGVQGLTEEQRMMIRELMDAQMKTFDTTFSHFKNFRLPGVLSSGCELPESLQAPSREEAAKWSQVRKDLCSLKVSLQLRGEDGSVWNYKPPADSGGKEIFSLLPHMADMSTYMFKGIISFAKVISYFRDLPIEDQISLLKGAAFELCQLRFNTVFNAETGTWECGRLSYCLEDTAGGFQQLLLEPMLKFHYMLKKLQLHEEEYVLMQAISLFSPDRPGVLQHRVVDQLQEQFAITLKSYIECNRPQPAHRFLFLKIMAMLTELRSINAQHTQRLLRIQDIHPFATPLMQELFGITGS

[2] = qHTS assay to identify small molecule antagonists of the thyroid receptor (TR) signaling pathway (AID 743065); conditions: GH3.TRE-Luc, T3-stimulated luciferase inhibition, 23.5 h; also: potency is read from the fitted curve at half-maximal effect; nearly all actives have a fitted effect of over 55% in size
Outline: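 GH3.TRE-Luc rat pituitary cells (two TREs driving luciferase) were dosed with compound, then stimulated with 1 nM T3 (final) for 23.5 h at 37 C. ONE-Glo luminescence was the read-out, with CellTiter-Fluor fluorescence as the cytotoxicity counter-screen.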

[3] = qHTS assay for small molecule agonists of the antioxidant response element (ARE) signaling pathway (AID 743202; active = well fitted activation curve with a large enough effect in the signal ratio in the repeat runs, not every such curve was filed as active; the % refers to the signal ratio; also: potency is read from the fitted curve at half-maximal effect); conditions: HepG2 ARE-bla reporter, beta-lactamase FRET, 16 h
Outline: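 HepG2 ARE-bla reporter line, 2,000 cells/well; 5 h preincubation 37 C/5% CO2; compound (DMSO) 16 h 37 C; B/G FRET substrate 2 h RT; fluorescence intensity.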

[4] = qHTS assay to identify small molecule antagonists of the estrogen related receptor (ERR) signaling pathway from Tox21 library (AID 1224848); conditions: ERR reporter cell line, luciferase antagonist mode, 18 h; also: potency is read from the fitted curve at half-maximal effect; nearly all actives have a fitted effect of over 50% in size
Outline: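 Compounds dissolved in DMSO are pin-transferred onto ERR reporter cells (2,000 per well) that have settled for 6 h at 37 C. Plates then incubate 18 h at 37 C before ONE-Glo luciferase reagent and a luminescence read 30 min later.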

[5] = qHTS assay to identify small molecule antagonists of the androgen receptor (AR) signaling pathway using the MDA cell line in the presence of 0.5 nM R1881 - cell viability counter screen (AID 1259242); conditions: MDA-kb2 viability, CellTiter-Fluor protease fluorescence, 16 h; at 92.4 µM (top of the series); also: % is scaled to controls: 0 for no effect and ±100 for the full control effect; nearly all actives have a fitted effect of over 45% in size
Outline: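 qHTS format. MDA-kb2 (MMTV-luc, AR/GR responsive) + cpd + 0.5 nM R1881 final, 16 hr 37C/0% CO2 → CellTiter-Fluor 30 min → fluorescence intensity.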

[6] = qHTS assay to identify small molecule agonists of the sonic hedgehog signaling (Shh) pathway - cell viability counter screen (AID 1259366); conditions: NIH/3T3 Gli1-Luc viability, CellTiter-Fluor, 24 h; series mostly up to 92.4 µM; also: % is scaled to controls: 0 for no effect and ±100 for the full control effect; nearly all actives have a fitted effect of over 50% in size
Outline: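 Cells are plated at 2,000 per well and left 4hr at 37C, 5% CO2 before compound addition. After 23hr of treatment, CellTiter-Fluor reagent is added for 1hr at 37C and fluorescence is measured.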

[7] = biological target: Estrogen receptor beta (Homo sapiens) (UniProt Q92731); assay: qHTS assay to identify small molecule antagonists of the estrogen receptor beta (ER-beta) signaling pathway (AID 1259378; active = well fitted inhibition curve with a large enough effect in the signal ratio in the repeat runs, not every such curve was filed as active; the % refers to the signal ratio; also: % is scaled to controls: 0 for no effect and ±100 for the full control effect); conditions: ER-beta-UAS-bla HEK293T, beta-lactamase FRET ratio, 16 h; at 92.4 µM (top of the series)
Outline: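 ER-beta-UAS-bla HEK293T cells in 2% charcoal-stripped FBS medium treated with compound plus 1nM final 17-beta-estradiol for 16 hr at 37C. Beta-lactamase reporter read by FRET substrate fluorescence after 2 hours at room temperature.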

[8] = Human pregnane X receptor (PXR) small molecule agonists, qHTS cell viability counter screen (AID 1346977); conditions: PXR-Luc HepG2 viability, CellTiter-Fluor, 24 h; also: potency is read from the fitted curve at half-maximal effect; nearly all actives have a fitted effect of over 50% in size
Outline: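 Cytotoxicity counter screen run in the same wells as the PXR luciferase assay, using PXR-Luc HepG2 cells in charcoal-stripped serum medium. Viability: CellTiter-Fluor fluorescence after 24hr compound treatment.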

[9] = qHTS assay to identify aromatase inhibitors - cell viability counter screen (AID 743084); conditions: MCF-7 aro ERE viability, CellTiter-Fluor, 24 h; series mostly up to 70.3 µM;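 also: cells stimulated with testosterone during compound exposure; % is scaled to controls: 0 for no effect and ±100 for the full control effect; nearly all actives have a fitted effect of over 55% in size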
[10] = biological target: Nuclear receptor subfamily 1 group I member 2 (Homo sapiens) (UniProt O75469); assay: Human pregnane X receptor (PXR) small molecule agonists, qHTS assay (AID 1346982); conditions: PXR-Luc HepG2, CYP3A4 luciferase reporter, 24 h; also: potency is read from the fitted curve at half-maximal effect; nearly all actives have a fitted effect of over 35% in size
Outline: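 Reporter HepG2 cells expressing PXR-Luc are cultured in charcoal-stripped FBS (5%), treated with compounds for 24 hr at 37 C, and assayed by ONE-Glo luminescence after 30 min at room temperature.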

Row | SMILES | Potency [1] | Potency [2] | Potency [3] | Potency [4] | viability change, negative = cytotoxic [5] | Potency [6] | activity, negative = inhibition [7] | Potency [8] | Potency [9] | Potency [10]
1 | CCC(=O)N(c1ccccc1)C1(COC)CCN(CCc2cccs2)CC1 | active: 54.4 µM | active: 54.4 µM | active: 27.3 µM | active: 48.5 µM | inactive: -15.6% | inactive | inactive: -17.8% | active: 61.1 µM |  | 
2 | CCC(=O)N(c1ccccc1)C1(COC)CCN(CCn2nnn(CC)c2=O)CC1 |  |  |  |  |  |  |  |  | inactive | active: 26.8 µM

Reference: PubChem BioAssay (Tox21)
